This note sets out measurements from US11111233B2, “Amino pyrimidine compound for inhibiting protein tyrosine kinase activity” (Shenzhen TargetRx, Inc., priority 2016, dated 2021).

The subject of test [1] is lung cancer cells NCI-H1975 (L858R/T790M). As to the kind of experiment: Cytotoxicity test (MTS cell viability), NCI-H1975. Conditions: read-out: H1975 (L858R/T790M) IC50.
The test system of test [2] is lung cancer cells HCC827 (Del19). As to the kind of experiment: Cytotoxicity test (MTS cell viability), HCC827. It counts as cell-based. The following applies: read-out: HCC827 (Del19) IC50, 72 hours.
Test [3] concerns Skin cancer cell line A431 (WT). The experiment in a line: Cytotoxicity test (MTS cell viability), A431. Conditions: read-out: A431 (WT) IC50, 72 hours.

Structures are written as SMILES. Read-outs that look alike come from different tables or passages of the source. A value given as a limit tells only on which side of the number the result lay.

For `C=CC(=O)Nc1cc(Nc2nccc(-c3cnc4nc(OC)n(C(C)C)c4c3)n2)c(OC)cc1N(C)CCN(C)C`, the IC50 in test [1] lay within 0.01 to 0.1 µM; in test [2] it was 0.01 to 0.1 µM; in test [3], 0.4 to 1 µM.
Turning to `C=CC(=O)Nc1cc(Nc2nccc(-c3cc(F)c4nc(C)n(C(C)C)c4c3)n2)c(OC)cc1N1CCC(OCC)CC1`, in test [1] (MTS, 72 hours), the IC50 is more than 1 µM.
